The experiment addresses mGluR2 receptor (metabotropic glutamate receptor 2) (Homo sapiens, UniProt Q14416). The experiment is described as follows: mGluR2 Potentiator Screen, FLIPR, EC10-EC20 glutamate challenge. It counts as cell-based.
The mark [1] stands for this setting: mGluR2 potentiator screen, FLIPR, EC10-EC20 glutamate challenge, tested form: HCl.
Where [2] appears, read: mGluR2 potentiator screen, FLIPR, EC10-EC20 glutamate challenge.

Amino acid sequences for entries named in this document (tags omitted). Residues count along the entry.
UniProt Q14416, 19-872 limits assumed: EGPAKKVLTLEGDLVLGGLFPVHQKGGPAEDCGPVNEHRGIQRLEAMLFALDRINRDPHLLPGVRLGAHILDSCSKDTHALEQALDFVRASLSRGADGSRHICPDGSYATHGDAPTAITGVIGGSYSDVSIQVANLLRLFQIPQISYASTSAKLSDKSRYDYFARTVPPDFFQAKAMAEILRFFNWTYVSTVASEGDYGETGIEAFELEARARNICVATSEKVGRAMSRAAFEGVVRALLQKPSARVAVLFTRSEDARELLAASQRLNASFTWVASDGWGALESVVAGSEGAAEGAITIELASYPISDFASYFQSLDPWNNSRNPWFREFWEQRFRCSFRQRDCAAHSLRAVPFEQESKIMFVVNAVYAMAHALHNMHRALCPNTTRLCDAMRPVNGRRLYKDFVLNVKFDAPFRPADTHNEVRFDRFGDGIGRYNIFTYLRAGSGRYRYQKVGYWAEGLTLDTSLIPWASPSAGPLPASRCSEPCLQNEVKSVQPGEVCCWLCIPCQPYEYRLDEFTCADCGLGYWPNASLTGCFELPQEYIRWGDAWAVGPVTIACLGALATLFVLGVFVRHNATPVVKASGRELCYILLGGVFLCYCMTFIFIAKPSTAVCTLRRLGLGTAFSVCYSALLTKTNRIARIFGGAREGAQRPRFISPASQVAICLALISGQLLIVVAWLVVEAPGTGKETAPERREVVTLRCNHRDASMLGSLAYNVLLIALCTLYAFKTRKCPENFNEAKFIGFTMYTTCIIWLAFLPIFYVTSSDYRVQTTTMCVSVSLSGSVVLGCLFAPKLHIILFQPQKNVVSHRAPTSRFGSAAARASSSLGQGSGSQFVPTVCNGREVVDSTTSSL

Structures are written as SMILES. pEC50: −log10 of the molar value. Read-outs that look alike come from different tables or passages of the source.

Consider `C[C@@H]1CN(Cc2nc3cnccc3n2C)CC[C@@H]1c1ccc(Cl)cc1Cl` (relative stereo) [232], for which the pEC50 under setting [1] is 6.14.

`CO[C@@H]1CN(Cc2nc3ncccc3n2C)CC[C@@H]1c1ccc(C(F)(F)F)cc1` (relative stereo): the negative-log EC50 (pEC50) is 6.32.

Take `Cn1c(CN2CCC(c3ccc(OC(F)(F)F)cc3F)CC2)nc2ncccc21`: the negative logarithm of the EC50 (pEC50) under setting [2] was 7.60.

As for `C[C@@H]1CN(Cc2nc3cnccc3n2C)CC[C@@H]1c1ccc(Cl)cc1Cl` (relative stereo) [233], the pEC50 under setting [1] was 7.14.

Take `COc1cccc(F)c1C1CCN(Cc2nc3ncccc3n2C)CC1`: the pEC50 was 6.12.

On to `Cc1cc(C(F)(F)F)ccc1[C@H]1CCN(Cc2nc3cnccc3n2C)C[C@H]1C` (relative stereo), for which the pEC50 under setting [2] is 6.72.
